Assay results published in ChEMBL document CHEMBL1144315, “Three-dimensional quantitative structure (3-D QSAR) activity relationship studies on imidazolyl and N-pyrrolyl heptenoates as 3-hydroxy-3-methylglutaryl-CoA reductase (HMGR) inhibitors by comparative molecular similarity indices analysis (CoMSIA)” (Bioorg Med Chem Lett, 2005).

Target: T1, 3-hydroxy-3-methylglutaryl-coenzyme A reductase (Homo sapiens, UniProt P04035)
T1 sequence (P04035 whole entry): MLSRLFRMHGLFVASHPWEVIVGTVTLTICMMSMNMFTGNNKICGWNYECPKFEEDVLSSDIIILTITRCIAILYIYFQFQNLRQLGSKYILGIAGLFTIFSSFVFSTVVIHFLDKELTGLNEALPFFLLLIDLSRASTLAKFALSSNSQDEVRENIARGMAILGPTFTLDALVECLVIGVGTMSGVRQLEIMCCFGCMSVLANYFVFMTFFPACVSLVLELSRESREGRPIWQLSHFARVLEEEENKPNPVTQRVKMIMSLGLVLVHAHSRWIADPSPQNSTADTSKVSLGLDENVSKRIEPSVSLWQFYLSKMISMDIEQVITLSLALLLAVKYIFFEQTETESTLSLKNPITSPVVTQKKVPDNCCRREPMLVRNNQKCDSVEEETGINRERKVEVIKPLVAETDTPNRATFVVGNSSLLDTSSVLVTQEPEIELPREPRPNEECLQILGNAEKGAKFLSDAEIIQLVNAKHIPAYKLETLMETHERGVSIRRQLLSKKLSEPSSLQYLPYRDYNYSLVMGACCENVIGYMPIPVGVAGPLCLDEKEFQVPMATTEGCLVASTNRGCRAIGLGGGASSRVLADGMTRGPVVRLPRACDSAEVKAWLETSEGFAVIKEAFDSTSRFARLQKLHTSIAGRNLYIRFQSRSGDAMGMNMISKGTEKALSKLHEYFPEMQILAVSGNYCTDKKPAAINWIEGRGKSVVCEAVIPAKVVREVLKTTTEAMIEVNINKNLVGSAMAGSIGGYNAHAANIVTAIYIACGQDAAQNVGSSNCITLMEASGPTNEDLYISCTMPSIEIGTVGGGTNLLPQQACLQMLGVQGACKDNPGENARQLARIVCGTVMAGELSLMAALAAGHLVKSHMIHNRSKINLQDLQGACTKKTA
Test: Inhibitory concentration against 3-hydroxy-3-methylglutaryl-CoA reductase

IC50: 6 nM
Compound: CC(C)c1c(C(=O)Nc2ccccc2)c(-c2ccccc2)c(-c2ccc(F)cc2)n1CC[C@@H](O)C[C@@H](O)CC(=O)O [ATORVASTATIN]
